Assays:
[1] = test system: P. falciparum 3D7; test: P. falciparum asexual blood stage viability assay; format: cell-based
[2] = test system: P. berghei ANKA; test: P. berghei liver stage parasite load assay in HepG2 cells; format: cell-based; details: HepG2 host cells
[3] = test system: panel of 468 kinases (403 non-mutant kinases); format: binding, human; details: KINOMEscan

| SMILES | fold improvement in P. falciparum blood stage potency on adding CF3 or OCF3 ([1]; compared to parent compound without meta group (64, 66, 67 or 68)) [fold] | fold difference between P. berghei EC50 and CellTiter-Fluor CC50 [2] [fold] | selectivity score S1 (1 μM) [3] | fold improvement in potency against P. falciparum blood stage over 39 and 41 ([1]; compared to both 39 and 41) [fold] | fold improvement in P. falciparum blood stage inhibitory activity over 41 ([1]; compared to 41) |
| --- | --- | --- | --- | --- | --- |
| COc1cc2nccc(Oc3ccc(NC(=O)Nc4ccc(CC5CCNCC5)c(C(F)(F)F)c4)c(F)c3)c2cc1OC [Compound 79, 1-(4-((6,7-dimethoxyquinolin-4-yl)oxy)-2-fluorophenyl)-3-(4-(piperidin-4-ylmethyl)-3-(trifluoromethyl)phenyl)urea] | 4 | 5.9 | 0.24 | – | – |
| COc1cc2nccc(Oc3ccc(NC(=O)Nc4ccc(CN5CCN(C)CC5)c(C(F)(F)F)c4)c(F)c3)c2cc1OC [Compound 45, 1-(4-((6,7-dimethoxyquinolin-4-yl)oxy)-2-fluorophenyl)-3-(4-((4-methylpiperazin-1-yl)methyl)-3-(trifluoromethyl)phenyl)urea diformate] | – | – | 0.33 | 5 | – |
| COc1cc2nccc(Oc3ccc(NC(=O)Nc4ccc(CC5CCNCC5)cc4)c(F)c3)c2cc1OC [Compound 67, 1-(4-((6,7-dimethoxyquinolin-4-yl)oxy)-2-fluorophenyl)-3-(4-(piperidin-4-ylmethyl)phenyl)urea] | – | 1.4 | 0.055 | – | approximately 4 fold |
